Molecules are shown by their SMILES.

Assay [1] deals with rabbit heart isoproterenol-stimulated adenylate cyclase. The assay is described as follows: rabbit heart isoproterenol-stimulated adenylate cyclase. It is filed as biochemical. Particulars: Table III.
The next assay addresses heart adenylate cyclase. Particulars: read-out: Adenylate Cyclase Ki, Heart (G); cited from earlier work.
Assay [2] deals with rabbit ciliary process adenylate cyclase (beta2-adrenergic receptors). The assay is described as follows: rabbit ciliary process isoproterenol-stimulated adenylate cyclase. Particulars: Table III; rabbit heart vs rabbit ciliary process; ±20%.

As to `CC(C)NCC(O)COc1ccc(CC(N)=O)cc1` (stereo not drawn) [Atenolol, atenolol], the inhibition constant Ki (in assay [1]; on heart adenylate cyclase) was 4.1 µM throughout.
For the molecule `CC(C)(C)NC[C@H](O)COc1nsnc1N1CCOCC1` [Timolol, timolol], the “Ki heart / Ki Ciliary Process = beta2/beta1 potency ratio” value in assay [2] is listed as 3.6.

(Values after patent US4652586A, “Selective beta-2 adrenergic antagonists for the treatment of glaucoma” (priority 1980, dated 1987).)
